Results published in PMC7911104 (2021).

Columns and labels:
Test in all cases: SEC-MALS
[1] = target: T1, ALK5 (TGFBR1) intracellular domain, residues 162-503 (Homo sapiens (Human), UniProt P36897)
T1 chain: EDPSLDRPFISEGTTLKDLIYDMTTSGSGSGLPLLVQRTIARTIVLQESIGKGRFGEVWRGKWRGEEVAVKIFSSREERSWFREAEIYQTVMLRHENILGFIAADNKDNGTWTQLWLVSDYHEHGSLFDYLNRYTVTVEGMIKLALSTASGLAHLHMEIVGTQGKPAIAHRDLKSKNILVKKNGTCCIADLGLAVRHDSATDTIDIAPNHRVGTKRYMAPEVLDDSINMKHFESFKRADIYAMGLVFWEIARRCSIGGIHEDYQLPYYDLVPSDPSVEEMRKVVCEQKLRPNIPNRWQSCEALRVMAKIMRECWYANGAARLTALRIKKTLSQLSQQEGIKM

[2] = target: T2, ActRIIA (ACVR2A) intracellular domain, residues 191-488 (Homo sapiens (Human), UniProt P27037)
T2 chain: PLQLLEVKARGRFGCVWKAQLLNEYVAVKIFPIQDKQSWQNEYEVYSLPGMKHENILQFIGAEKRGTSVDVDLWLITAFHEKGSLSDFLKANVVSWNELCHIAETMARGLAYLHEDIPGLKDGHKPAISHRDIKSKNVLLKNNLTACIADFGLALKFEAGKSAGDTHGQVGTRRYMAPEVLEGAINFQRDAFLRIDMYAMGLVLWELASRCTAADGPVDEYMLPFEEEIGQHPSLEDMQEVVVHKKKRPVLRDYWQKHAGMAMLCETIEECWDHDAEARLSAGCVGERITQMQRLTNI

[3] = target: T3, ALK6 (BMPR1B) intracellular domain, residues 168-502 (Homo sapiens (Human), UniProt O00238)
T3 chain: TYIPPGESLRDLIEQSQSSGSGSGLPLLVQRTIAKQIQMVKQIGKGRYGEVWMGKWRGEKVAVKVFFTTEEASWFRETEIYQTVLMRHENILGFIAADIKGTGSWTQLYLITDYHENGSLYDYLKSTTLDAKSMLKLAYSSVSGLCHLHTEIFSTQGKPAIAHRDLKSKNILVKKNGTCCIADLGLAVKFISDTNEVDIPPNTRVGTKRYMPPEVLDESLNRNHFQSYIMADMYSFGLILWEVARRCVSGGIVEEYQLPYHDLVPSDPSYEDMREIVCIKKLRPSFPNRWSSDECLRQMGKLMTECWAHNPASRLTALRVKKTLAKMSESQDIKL

- binding result [1]: binds
- binding result [2]: no binding
- binding result [3]: binds
B1: FKBP12.6 (FKBP1B), full length, recombinant (protein)
chain: MGVEIETISPGDGRTFPKKGQTCVVHYTGMLQNGKKFDSSRDRNKPFKFRIGKQEVIKGFEEGAAQMSLGQRAKLTCTPDVAYGATGHPGVIPPNATLIFDVELLNLE
